{
  "sequences": {"note": "Protein sequences, listed by entry. Tags and fused reporters are not part of them. Lines headed by an entry give the natural chain unless they say otherwise; changes in a name come on top.", "UniProt Q14432": "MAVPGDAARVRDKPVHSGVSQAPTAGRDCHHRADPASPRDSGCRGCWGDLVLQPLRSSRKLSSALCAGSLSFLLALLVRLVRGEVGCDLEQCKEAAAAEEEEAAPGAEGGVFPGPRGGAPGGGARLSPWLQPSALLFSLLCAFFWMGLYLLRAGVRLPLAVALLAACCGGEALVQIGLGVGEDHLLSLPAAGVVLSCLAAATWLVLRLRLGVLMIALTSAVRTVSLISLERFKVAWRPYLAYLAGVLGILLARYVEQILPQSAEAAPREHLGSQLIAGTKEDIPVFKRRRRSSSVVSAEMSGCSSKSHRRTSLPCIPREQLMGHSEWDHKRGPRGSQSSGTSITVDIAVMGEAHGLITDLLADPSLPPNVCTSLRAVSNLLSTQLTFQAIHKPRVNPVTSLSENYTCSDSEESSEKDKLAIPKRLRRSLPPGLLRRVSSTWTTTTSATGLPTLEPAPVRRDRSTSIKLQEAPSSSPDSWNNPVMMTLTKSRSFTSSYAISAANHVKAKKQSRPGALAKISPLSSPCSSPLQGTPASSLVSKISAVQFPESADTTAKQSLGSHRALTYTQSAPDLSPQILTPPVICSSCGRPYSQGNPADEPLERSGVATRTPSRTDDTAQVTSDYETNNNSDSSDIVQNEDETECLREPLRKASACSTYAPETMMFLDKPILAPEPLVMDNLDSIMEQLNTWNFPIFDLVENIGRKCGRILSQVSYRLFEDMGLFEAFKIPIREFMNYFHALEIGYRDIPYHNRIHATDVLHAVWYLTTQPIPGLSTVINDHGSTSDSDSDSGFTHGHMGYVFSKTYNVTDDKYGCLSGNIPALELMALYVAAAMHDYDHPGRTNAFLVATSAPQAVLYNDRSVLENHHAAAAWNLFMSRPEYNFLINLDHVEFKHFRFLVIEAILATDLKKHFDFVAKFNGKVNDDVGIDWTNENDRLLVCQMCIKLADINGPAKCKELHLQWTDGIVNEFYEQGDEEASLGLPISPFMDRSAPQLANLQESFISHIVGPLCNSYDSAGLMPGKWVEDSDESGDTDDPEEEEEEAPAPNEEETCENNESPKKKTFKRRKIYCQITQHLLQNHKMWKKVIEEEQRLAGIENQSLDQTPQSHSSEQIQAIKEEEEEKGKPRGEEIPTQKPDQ"},
  "source": "patent US5236918A",
  "about": "“6-aryl-3-cyanaminopyridazines, their preparation and use and medicaments containing them” (BYK Gulden Lomberg Chemische Fabrik GmbH, priority 1989, dated 1993)",
  "target": "T1, PDE III (Homo sapiens, UniProt Q14432)",
  "T1 construct": "PDE III isolated from human platelets; from tissue; host or cells: human platelets",
  "assay": "inhibition of PDE III isolated from human platelets",
  "format": "biochemical",
  "from_the_text": "The inhibition of phosphodiesterases of classes III (PDE III=high-affinity cAMP-PDE which can be inhibited by cGMP) and IV (PDE IV=high-affinity cAMP-PDE which cannot be inhibited by cGMP, Rolipram-sensitive) is regarded as being particularly conclusive for a bronchospasmolytic and/or antiinflammatory action which may be expected [H. Hidaka et al., Adv. Cycl. Nucl. Res. 13, 145 (1984); Tips 5, 237 (1984); R. Weishaar et al., J. Med. Chem. 28, 537 (1985); S. A. Harrison et al., Molec. Pharmac. 29, 506 (1986); J. Klein-Tebbe et al., Allergologie 12, 12 (1989); C. Schudt et al., Allergologie 12, 12 (1989)].\nThe PDE inhibition of the compounds according to the invention was therefore determined on a PDE III isolated from human platelets and PDE IV isolated from human neutrophilic polymorphonuclear cells (PMNs) and from the canine trachea. The phosphodiesterases III and IV are isolated by chromatography by the method of Polson et al., Biochem. Pharmacol. 31, 3403-3406 (1982).\nThe substances are dissolved in DMSO and diluted further. From a series of solutions diluted up to a hundred-fold, 2.1 μl portions are taken and 212 μl reaction mixture are added. […]\nThe reaction is started by addition of 10 μl PDE to the reaction mixture and to the substance batch. […] The adenosine formed remains in the supernatant after centrifugation and can be measured in an aliquot by the radioactivity contained therein.",
  "note": "pIC50: −log10 of the molar value.",
  "data": [
    {"smiles": "Cn1c(=O)c2[nH]cnc2n(C)c1=O", "note": "[Theophylline, theophylline, reference compound]", "values": [
      {"measurement": "pIC50", "result": 3.79}
    ]}
  ]
}
